Data as given in patent US6436918B1, “Steroid sulfatase inhibitors and methods for making and using the same” (Duquesne University of the Holy Ghost, priority 1997, dated 2002).

Sequences of proteins named here, by UniProt entry; tags and fusion partners are left off. Residues count along the entry.
UniProt P08842, 22-583 limits assumed: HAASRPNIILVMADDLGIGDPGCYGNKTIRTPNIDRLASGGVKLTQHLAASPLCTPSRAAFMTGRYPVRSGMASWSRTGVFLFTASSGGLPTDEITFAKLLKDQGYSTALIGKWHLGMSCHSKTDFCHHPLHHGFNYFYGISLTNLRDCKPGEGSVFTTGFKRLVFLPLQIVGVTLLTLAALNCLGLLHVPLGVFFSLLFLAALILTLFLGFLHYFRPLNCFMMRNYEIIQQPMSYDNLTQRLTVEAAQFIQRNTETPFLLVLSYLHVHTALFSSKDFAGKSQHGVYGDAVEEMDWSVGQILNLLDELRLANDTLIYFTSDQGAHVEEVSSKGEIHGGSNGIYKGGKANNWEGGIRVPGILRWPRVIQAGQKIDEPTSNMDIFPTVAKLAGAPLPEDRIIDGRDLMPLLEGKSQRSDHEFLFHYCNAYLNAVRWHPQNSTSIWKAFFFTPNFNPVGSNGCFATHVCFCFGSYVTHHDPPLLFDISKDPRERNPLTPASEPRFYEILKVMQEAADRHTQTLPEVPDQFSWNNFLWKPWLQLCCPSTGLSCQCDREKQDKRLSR

Biological target: recombinant human estrone sulfatase (Homo sapiens, UniProt P08842)
Assay: in vitro conversion assay: inhibition of conversion of 3H-estrone sulfate to 3H-estrone by estrone sulfatase
Format: biochemical
Details: Table 2; 3H-estrone sulfate 3.3 nmole/L, 60 minutes at 37° C., pH 7; enzyme partially purified from transfected CHO cells

Structure (SMILES)	IC50
CCCN(C)C(=O)C1=CCC2C3CCc4cc(OS(N)(=O)=O)ccc4C3CCC12C (centres unmarked)	2.5 nM
CCCOC(=O)C1=CCC2C3CCc4cc(OS(N)(=O)=O)ccc4C3CCC12C (centres unmarked)	13 nM
CC(C)CNC(=O)C1=CCC2C3CCc4cc(OS(N)(=O)=O)ccc4C3CCC12C (centres unmarked)	10 nM
CCN(CC)C(=O)C1=CC[C@H]2[C@@H]3CCc4cc(OS(N)(=O)=O)ccc4[C@H]3CC[C@]12C	3.6 nM
CCC(C)NC(=O)C1=CCC2C3CCc4cc(OS(N)(=O)=O)ccc4C3CCC12C (centres unmarked)	3.5 nM
CCNC(=O)C1=CC[C@H]2[C@@H]3CCc4cc(OS(N)(=O)=O)ccc4[C@H]3CC[C@]12C	14 nM
CC(C)(C)NC(=O)C1=CC[C@H]2[C@@H]3CCc4cc(OS(N)(=O)=O)ccc4[C@H]3CC[C@]12C	12 nM
CNC(=O)C1=CCC2C3CCc4cc(OS(N)(=O)=O)ccc4C3CCC12C (centres unmarked)	12 nM

Second part, the compound after the results:

IC50	Structure (SMILES)
12 nM	COC(=O)C1=CC[C@H]2[C@@H]3CCc4cc(OS(N)(=O)=O)ccc4[C@H]3CC[C@]12C
4.8 nM	CC(C)N(C(=O)C1=CC[C@H]2[C@@H]3CCc4cc(OS(N)(=O)=O)ccc4[C@H]3CC[C@]12C)C(C)C
12 nM	CON(C)C(=O)C1=CC[C@H]2[C@@H]3CCc4cc(OS(N)(=O)=O)ccc4[C@H]3CC[C@]12C
3.2 nM	CC(C)NC(=O)C1=CCC2C3CCc4cc(OS(N)(=O)=O)ccc4C3CCC12C (centres unmarked)
5 nM	CCCNC(=O)C1=CC[C@H]2[C@@H]3CCc4cc(OS(N)(=O)=O)ccc4[C@H]3CC[C@]12C
12 nM	CCOC(=O)C1=CCC2C3CCc4cc(OS(N)(=O)=O)ccc4C3CCC12C (centres unmarked)
